# Target: T1, IL-23R (Homo sapiens, UniProt Q5VWK5)
# T1 construct: host or cells: HEK293
# T1 sequence (Q5VWK5 24-629): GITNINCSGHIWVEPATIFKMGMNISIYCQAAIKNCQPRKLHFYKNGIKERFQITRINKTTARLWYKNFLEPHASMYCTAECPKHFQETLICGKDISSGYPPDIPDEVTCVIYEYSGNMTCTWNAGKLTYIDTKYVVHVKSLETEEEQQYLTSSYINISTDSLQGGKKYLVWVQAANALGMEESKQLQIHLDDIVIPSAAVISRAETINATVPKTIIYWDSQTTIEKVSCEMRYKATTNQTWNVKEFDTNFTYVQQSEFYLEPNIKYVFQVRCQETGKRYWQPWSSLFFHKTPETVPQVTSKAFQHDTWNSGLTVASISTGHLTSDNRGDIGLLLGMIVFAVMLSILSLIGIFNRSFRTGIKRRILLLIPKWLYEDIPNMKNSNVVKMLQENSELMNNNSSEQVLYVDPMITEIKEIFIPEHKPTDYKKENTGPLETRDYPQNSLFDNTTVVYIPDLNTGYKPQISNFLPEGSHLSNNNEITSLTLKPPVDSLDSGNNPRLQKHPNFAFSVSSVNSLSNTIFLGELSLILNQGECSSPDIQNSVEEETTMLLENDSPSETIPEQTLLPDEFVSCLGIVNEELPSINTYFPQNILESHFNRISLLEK
# Test: IL23R Reporter Assay
# Assay type: cell-based
# Details: HEK293 cells containing IL-23R, IL-12RP1 and STAT-inducible firefly luciferase reporter; 10 ng/mL IL-23 (EC90); 5 h at 37° C.; read-out: IL23R Reporter Assay
row,SMILES,IC50
1,COCC[N+](C)(C)CCc1cn(CCOc2ccc(C[C@H](NC(=O)[C@H]3NC(=O)[C@H](CCCCNC(C)=O)NC(=O)[C@H](Cc4c[nH]c5c(C)cccc45)NC(=O)[C@H]([C@@H](C)O)NC(=O)[C@H](CC(N)=O)NC(=O)[C@@H](NC(C)=O)C(C)(C)SSC3(C)C)C(=O)N[C@@H](Cc3ccc4ccccc4c3)C(=O)NC3(C(=O)N[C@@H](CCCCNC(C)=O)C(=O)N[C@@H](CC(N)=O)C(=O)N[C@@H](Cc4cccnc4)C(=O)N(C)CC(N)=O)CCOCC3)cc2)nn1 [compound 249],3.6 nM
2,"COCCN1CC[N+]2(CC1)CCN(CCOc1ccc(C[C@H](NC(=O)[C@H]3NC(=O)[C@H](CCCCN(C)C(C)=O)NC(=O)[C@H](Cc4c[nH]c5c(C)cccc45)NC(=O)[C@H]([C@@H](C)O)NC(=O)[C@H](CC(=O)N(C)C)NC(=O)[C@@H](NC(=O)CCOCCOCC[N+](C)(C)C)C(C)(C)SSC3(C)C)C(=O)N[C@@H](Cc3ccc4ccccc4c3)C(=O)NC3(C(=O)N[C@@H](CCCCN(C)C(C)=O)C(=O)N[C@@H](CC(N)=O)C(=O)N[C@@H](Cc4cccnc4)C(=O)N(C)CC(=O)N(C)C)CCOCC3)cc1)CC2 [compound 262, cPEG3aCO-Pen(3)-N(N(Me)2)-T-7MeW-K(NMeAc)-Pen(3)-MTASF-2Nal-THP-K(NMeAc)-N-3Pya-Sar-CON(Me)2]",3.6 nM
3,"CC(=O)N(C)CCCC[C@@H]1NC(=O)[C@H](Cc2c[nH]c3c(C)cccc23)NC(=O)[C@H]([C@@H](C)O)NC(=O)[C@H](CC(=O)N(C)C)NC(=O)[C@@H](NC(=O)CCOCCOCC[N+](C)(C)C)C(C)(C)SSC(C)(C)[C@@H](C(=O)N[C@@H](Cc2ccc(OCC[N+](C)(C)CCOCC[N+](C)(C)C)cc2)C(=O)N[C@@H](Cc2ccc3ccccc3c2)C(=O)NC2(C(=O)N[C@@H](CCCCN(C)C(C)=O)C(=O)N[C@@H](CC(N)=O)C(=O)N[C@@H](Cc3cccnc3)C(=O)N(C)CC(=O)N(C)C)CCOCC2)NC1=O [compound 264, cPEG3aCO-Pen(3)-N(N(Me)2)-T-7MeW-K(NMeAc)-Pen(3)-AEF(aPEG2a)-2Nal-THP-K(NMeAc)-N-3Pya-Sar-CON(Me)2]",2.2 nM
4,"CC(=O)N(C)CCCC[C@@H]1NC(=O)[C@H](Cc2c[nH]c3c(C)cccc23)NC(=O)[C@H]([C@@H](C)O)NC(=O)[C@H](CC(=O)N(C)C)NC(=O)[C@@H](NC(=O)CCOCCOCC[N+](C)(C)C)C(C)(C)SSC(C)(C)[C@@H](C(=O)N[C@@H](Cc2ccc(OCCCC[N+](C)(C)CC[N+]3(C)CCOCC3)cc2)C(=O)N[C@@H](Cc2ccc3ccccc3c2)C(=O)NC2(C(=O)N[C@@H](CCCCN(C)C(C)=O)C(=O)N[C@@H](CC(N)=O)C(=O)N[C@@H](Cc3cccnc3)C(=O)N(C)CC(=O)N(C)C)CCOCC2)NC1=O [compound 271, cPEG3aCO-Pen(3)-N(N(Me)2)-T-7MeW-K(NMeAc)-Pen(3)-morfTMA4F-2Nal-THP-K(NMeAc)-N-3Pya-Sar-CON(Me)2]",2.2 nM
5,"CC(=O)N(C)CCCC[C@@H]1NC(=O)[C@H](Cc2c[nH]c3c(C)cccc23)NC(=O)[C@H]([C@@H](C)O)NC(=O)[C@H](CC(=O)N(C)C)NC(=O)[C@@H](NC(=O)CCOCCOCC[N+](C)(C)C)C(C)(C)SSC(C)(C)[C@@H](C(=O)N[C@@H](Cc2ccc(OCCN(C)CCC[N+](C)(C)CCCC[N+](C)(C)C)cc2)C(=O)N[C@@H](Cc2ccc3ccccc3c2)C(=O)NC2(C(=O)N[C@@H](CCCCN(C)C(C)=O)C(=O)N[C@@H](CC(N)=O)C(=O)N[C@@H](Cc3cccnc3)C(=O)N(C)CC(=O)N(C)C)CCOCC2)NC1=O [compound 277, cPEG3aCO-Pen(3)-N(N(Me)2)-T-7MeW-K(NMeAc)-Pen(3)-AEF(SPD)-2Nal-THP-K(NMeAc)-N-3Pya-Sar-CON(Me)2]",2.9 nM
6,"CC(=O)NCCCC[C@@H]1NC(=O)[C@H](Cc2c[nH]c3c(C)cccc23)NC(=O)[C@H]([C@@H](C)O)NC(=O)[C@H](CC(=O)N(C)C)NC(=O)[C@@H](NC(C)=O)C(C)(C)SSC(C)(C)[C@@H](C(=O)N[C@@H](Cc2ccc(OCCN)cc2)C(=O)N[C@@H](Cc2ccc3ccccc3c2)C(=O)NC2(C(=O)N[C@@H](CCCCNC(C)=O)C(=O)N[C@@H](CC(N)=O)C(=O)N[C@@H](Cc3cccnc3)C(=O)N(C)CC(N)=O)CCOCC2)NC1=O [compound 279, MeCO-Pen(3)-N(N(Me)2)-T-7MeW-K(Ac)-Pen(3)-AEF-2Nal-THP-K(Ac)-N-3Pya-Sar-CONH2]",2.3 nM
7,CC(=O)N[C@@H]1C(=O)N[C@@H](CC(N)=O)C(=O)N[C@@H]([C@@H](C)O)C(=O)N[C@@H](Cc2c[nH]c3c(C)cccc23)C(=O)N[C@@H](CCCCN(C)C(C)=O)C(=O)N[C@H](C(=O)N[C@@H](Cc2ccc(OCCN)cc2)C(=O)N[C@@H](Cc2ccc3ccccc3c2)C(=O)NC2(C(=O)N[C@@H](CCCCN(C)C(C)=O)C(=O)N[C@@H](CC(N)=O)C(=O)N[C@@H](Cc3cccnc3)C(=O)N(C)CC(N)=O)CCOCC2)C(C)(C)SSC1(C)C [compound 280],2.7 nM
8,"COCCOCCOCC[N+](C)(C)CCc1cn(CCOc2ccc(C[C@H](NC(=O)[C@H]3NC(=O)[C@H](CCCCN(C)C(C)=O)NC(=O)[C@H](Cc4c[nH]c5c(C)cccc45)NC(=O)[C@H]([C@@H](C)O)NC(=O)[C@H](CC(=O)N(C)C)NC(=O)[C@@H](NC(=O)CCOCCOCC[N+](C)(C)C)C(C)(C)SSC3(C)C)C(=O)N[C@@H](Cc3ccc4ccccc4c3)C(=O)NC3(C(=O)N[C@@H](CCCCN(C)C(C)=O)C(=O)N[C@@H](CC(N)=O)C(=O)N[C@@H](Cc4cccnc4)C(=O)N(C)CC(=O)N(C)C)CCOCC3)cc2)nn1 [compound 283, cPEG3aCO-Pen(3)-N(N(Me)2)-T-7MeW-K(NMeAc)-Pen(3)-Y(OTzlChmPEG3)-2Nal-THP-K(NMeAc)-N-3Pya-Sar-CON(Me)2]",3.6 nM
9,"CC(=O)N(C)CCCC[C@@H]1NC(=O)[C@H](Cc2c[nH]c3c(C)cccc23)NC(=O)[C@H]([C@@H](C)O)NC(=O)[C@H](CC(=O)N(C)C)NC(=O)[C@@H](NC(=O)CCOCCOCC[N+](C)(C)C)C(C)(C)SSC(C)(C)[C@@H](C(=O)N[C@@H](Cc2ccc(OCCCCCCCC[N+](C)(C)C)cc2)C(=O)N[C@@H](Cc2ccc3ccccc3c2)C(=O)NC2(C(=O)N[C@@H](CCCCN(C)C(C)=O)C(=O)N[C@@H](CC(N)=O)C(=O)N[C@@H](Cc3cccnc3)C(=O)N(C)CC(=O)N(C)C)CCOCC2)NC1=O [compound 295, cPEG3aCO-Pen(3)-N(N(Me)2)-T-7MeW-K(NMeAc)-Pen(3)-TMA8F-2Nal-THP-K(NMeAc)-N-3Pya-Sar-CON(Me)2]",2.4 nM
10,"CC(=O)N(C)CCCC[C@@H]1NC(=O)[C@H](Cc2c[nH]c3c(C)cccc23)NC(=O)[C@H]([C@@H](C)O)NC(=O)[C@H](CC(=O)N(C)C)NC(=O)[C@@H](NC(=O)CCOCCOCC[N+](C)(C)C)C(C)(C)SSC(C)(C)[C@@H](C(=O)N[C@@H](Cc2ccc(OCCOCCOCC[N+]3(C)CCC(F)(F)CC3)cc2)C(=O)N[C@@H](Cc2ccc3ccccc3c2)C(=O)NC2(C(=O)N[C@@H](CCCCN(C)C(C)=O)C(=O)N[C@@H](CC(N)=O)C(=O)N[C@@H](Cc3cccnc3)C(=O)N(C)CC(=O)N(C)C)CCOCC2)NC1=O [compound 298, cPEG3aCO-Pen(3)-N(N(Me)2)-T-7MeW-K(NMeAc)-Pen(3)-dFPPEG3F-2Nal-THP-K(NMeAc)-N-3Pya-Sar-CON(Me)2]",1.7 nM
